The assay has as its target VLA-4 (α4β1 integrin) binding to immobilized VCAM-1 (Homo sapiens, UniProt P05556+P13612). In words: VLA-4/VCAM-1 Screening Assay (solid-phase, dual antibody ELISA). The settings on record: % inhibition of total binding. (In general: An ELISA detects its analyte on a solid surface through an enzyme-linked reagent.)

The chains behind the UniProt entries cited, without tags or fusion partners. Residues count along the entry.
UniProt P05556, 21-798 limits assumed: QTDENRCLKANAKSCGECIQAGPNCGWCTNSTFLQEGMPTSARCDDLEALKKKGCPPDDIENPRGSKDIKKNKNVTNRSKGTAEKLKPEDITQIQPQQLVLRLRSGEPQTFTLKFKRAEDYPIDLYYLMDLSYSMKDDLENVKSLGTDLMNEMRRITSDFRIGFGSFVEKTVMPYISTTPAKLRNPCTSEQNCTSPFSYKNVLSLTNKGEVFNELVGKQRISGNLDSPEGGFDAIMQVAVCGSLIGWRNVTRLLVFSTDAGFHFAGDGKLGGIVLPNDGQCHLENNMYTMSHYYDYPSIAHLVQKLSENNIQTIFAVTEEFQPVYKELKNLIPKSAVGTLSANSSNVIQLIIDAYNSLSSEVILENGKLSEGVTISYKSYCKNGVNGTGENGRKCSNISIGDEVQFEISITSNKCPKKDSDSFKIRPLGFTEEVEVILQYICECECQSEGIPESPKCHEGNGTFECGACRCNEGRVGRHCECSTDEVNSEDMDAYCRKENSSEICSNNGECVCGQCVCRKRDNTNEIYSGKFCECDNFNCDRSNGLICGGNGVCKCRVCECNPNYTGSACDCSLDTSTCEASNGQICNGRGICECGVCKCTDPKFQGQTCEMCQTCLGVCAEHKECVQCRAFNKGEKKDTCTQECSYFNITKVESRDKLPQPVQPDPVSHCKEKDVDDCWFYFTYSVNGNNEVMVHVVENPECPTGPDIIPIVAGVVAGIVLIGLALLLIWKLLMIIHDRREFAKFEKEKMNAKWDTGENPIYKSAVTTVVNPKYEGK
UniProt P13612, 34-1032 limits assumed: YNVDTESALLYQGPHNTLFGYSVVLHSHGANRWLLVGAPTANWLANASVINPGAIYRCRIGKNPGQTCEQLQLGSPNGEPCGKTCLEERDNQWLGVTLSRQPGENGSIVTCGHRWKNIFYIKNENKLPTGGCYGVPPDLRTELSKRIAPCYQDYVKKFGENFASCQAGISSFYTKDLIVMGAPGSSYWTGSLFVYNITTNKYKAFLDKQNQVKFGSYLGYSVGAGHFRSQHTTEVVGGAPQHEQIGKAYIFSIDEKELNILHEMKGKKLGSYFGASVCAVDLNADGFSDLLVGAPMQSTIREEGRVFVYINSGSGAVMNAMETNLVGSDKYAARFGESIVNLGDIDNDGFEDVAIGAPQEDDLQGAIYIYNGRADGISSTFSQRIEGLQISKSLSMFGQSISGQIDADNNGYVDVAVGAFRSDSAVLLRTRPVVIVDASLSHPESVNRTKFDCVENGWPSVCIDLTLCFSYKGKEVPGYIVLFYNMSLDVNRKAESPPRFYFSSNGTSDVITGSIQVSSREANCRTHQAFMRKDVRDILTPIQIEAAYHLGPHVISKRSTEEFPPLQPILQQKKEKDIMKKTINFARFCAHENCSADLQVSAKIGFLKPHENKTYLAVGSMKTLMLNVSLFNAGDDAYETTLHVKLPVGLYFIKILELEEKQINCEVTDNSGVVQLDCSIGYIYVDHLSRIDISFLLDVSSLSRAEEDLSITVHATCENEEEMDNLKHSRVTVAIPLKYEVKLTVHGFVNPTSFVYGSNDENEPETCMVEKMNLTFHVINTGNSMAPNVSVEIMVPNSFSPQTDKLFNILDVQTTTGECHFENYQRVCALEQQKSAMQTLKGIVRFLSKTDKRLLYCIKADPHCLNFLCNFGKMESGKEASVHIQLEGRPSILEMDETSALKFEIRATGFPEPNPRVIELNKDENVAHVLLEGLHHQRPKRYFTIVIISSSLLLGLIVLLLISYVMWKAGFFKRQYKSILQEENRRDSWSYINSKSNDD

As to `CC1(C)C2CCC1(C)C(C(=O)O)C2C(=O)N[C@@H](Cc1ccc(NC(=O)c2ccnc3ccccc23)cc1)C(=O)O` (some centres unmarked), the “% Inh. @ conc.” value is reported as 50% (conc. 10 nM) and 86% (conc. 100 nM).

For the origin of these results see patent US6455550B1, “N-alkanoylphenylalanine derivatives” (Hoffmann-La Roche Inc., priority 1997, dated 2002).
